Molecules are shown by their SMILES.

For the assay, the system named is INS1. Nature of the assay: Cytoprotective activity in endoplasmic reticulum stressed rat INS-1 cells assessed as rescue from tunicamycin-mediated reduction in cell survival after 72 hrs by CellTiter-Glo assay. It counts as functional, cell-based. A general note: In ATP-based viability assays light output follows the ATP content of the culture.

In the case of `Cc1c(C(=O)Nc2cccc(F)c2)nnn1-c1ccc(C(C)C)cc1`, the Activity result is “Dose-dependent effect”.

These data come from ChEMBL document CHEMBL3797120, “Identification of 1,2,3-triazole derivatives that protect pancreatic β cells against endoplasmic reticulum stress-mediated dysfunction and death through the inhibition of C/EBP-homologous protein expression” (Bioorg Med Chem, 2016).
